Consider one molecule from US11186548B2 (priority 2017, dated 2021).

The target of the experiment is human AChE (Homo sapiens, UniProt P22303). The experiment in a line: AChE reactivation, modified Ellman's assay. The class given is biochemical. The settings on record: sarin adducted AChE, FIG. 22 and 27. In general terms: Ellman's reagent forms a yellow product with free thiols.

As for `C[C@@H](CN1CCCc2ccccc2C1)NC(=O)/C=N/O` [LLNL-02], the “reactivation power of adducted AChE” value is recorded as “less reactivation power than LLNL-03”.
